Tested on: colon cancer cell line DLD-1
Assay: Cell viability assay (CellTiter-Glo) and combination effect analysis of leptomycin B plus co-agent
Type: cell-based, Human
Conditions: combination with leptomycin B, DLD-1 cells, average CI over fraction affected 0.2 to 0.9; for Combination Index, LMB First: 24 hours of LMB, then drug added and incubated for 48 hours; for Combination Index, Co-Agent First: drug alone for 24 hours followed by addition of LMB for 48 hours; for Combination Index, Simultaneous: simultaneous exposure to LMB and drug for 72 hours, constant ratio of IC50s
Description: The efficacy of a combination of leptomycin B and specific chemotherapeutic co-agents was determined. The additive, synergistic, or antagonistic effect of the combination of leptomycin B and a co-agent was calculated for each administration regimen using Calcusyn software (Biosoft, Cambridge, United Kingdom). This software calculates a combination index using the following algorithm: CI=[D]1/[Dx]1+[D]2/[Dx]2 where • CI is the combination index; • [D]1 and [D]2 are the concentrations of the two agents being tested (i.e., LMB and the co-agent) that, in combination provide a response of x % in the assay; and • [Dx]1 and [Dx]2 are the concentrations of the two agents that, when used alone, produce a response of x % in the assay.
A CI value of one means the combined effect of the two agents is additive. A CI value of less than one means that the two agents act synergistically. A CI value of greater than one means that the two agents act antagonistically.
The area under the curve where the fraction affected of cells (FA) ranged from 0.2 to 0.9 was calculated, to generate average CI values as shown in Table 1 for colon cancer cell line DLD-1.
Human colon adenocarcinoma cell line, DLD-1, was obtained from American Type Culture Collection (Manassas, Va.). […] Leptomycin B was produced by fermentation of a high producing isolate from Streptomyces sp. […] LMB is also available from commercial sources, such as Sigma-Aldrich. Other anti-cancer agents were either purchased commercially (e.g., from Sigma Chemical Co. (St. Louis, Mo.) or from Sequoia Research Products (Oxford, UK)).
Cells were seeded in duplicate in 96-well microtiter plates at a density of 4,000 cells per well and allowed to attach overnight. Cells were treated with LMB and the corresponding cytotoxic drug at varying concentrations, ranging from 0.5 picomolar (“pM”) to 50 micromolar (“μM”), for 3 days. Cell viability was determined using the CellTiter-Glo luminescent cell viability assay (Promega). For the drug combination assay, cells were seeded in duplicate in 96-well plates (4,000 cells/well). […] Based on the IC50 values of each individual drug, combined drug treatment was designed at constant ratios of two drugs, i.e., equivalent to the ratio of their IC50. Three treatment schedules were used: The first schedule used simultaneous exposure to both LMB and drug for 72 hours. In the second schedule, the cells were exposed to 24 hours of LMB. The drug was then added to the cells and incubated for 48 hours. In the third schedule, cells were exposed to the drug alone for 24 hours followed by addition of LMB for 48 hours. Cell viability was determined by the CellTiter-Glo luminescent cell viability assay. Synergism, additivity, or antagonism was determined by median effect analysis using the combination index (CI) calculated using Calcusyn (Biosoft, Cambridge, UK), as described above.

Compound | Combination Index, LMB First | Combination Index, Co-Agent First | Combination Index, Simultaneous
bleomycin | 0.78 ± 0.16 | 0.71 ± 0.04 | 1.41 ± 0.39
CO[C@@]12[C@H](COC(N)=O)C3=C(C(=O)C(C)=C(N)C3=O)N1C[C@@H]1N[C@@H]12 [Mitomycin C, mitomycin] | 1.04 ± 0.01 | 0.85 ± 0.02 | 1.04 ± 0.05
2-fluorovidarabine [Fludarabine] | 0.70 ± 0.13 | 0.94 ± 0.003 | 1.10 ± 0.05

Reference: patent US20050203174A1, “Combination therapies using leptomycin B” (Kosan Biosciences, Inc., priority 2004, published 2005)
